Tested on: rat hepatocytes
Experiment: In vitro metabolism in rat hepatocytes
Type: in vitro ADME
Settings: 2 hours, pH 7.5, 37° C.
Experimental: PEG-Gly-(7-ethyl-10-hydroxycamptothecin) was incubated with rat hepatocytes for 2 hours, pH 7.5, 37° C.

For “^40k4arm-PEG-Gly(20)-(7-ethyl-10-hydroxycamptothecin) [Compound 9]”, the major metabolites identified was 7-ethyl-10-hydroxycamptothecin and 7-ethyl-10-hydroxycamptothecin-Glucuronide.

Source: patent publication US8299089B2, “Multi-arm polymeric conjugates of 7-ethyl-10-hydroxycamptothecin for treatment of breast, colorectal, pancreatic, ovarian and lung cancers” (priority 2006, dated 2012)
